Measured values: PMC8617063 (Nature Communications, 2021)

What was measured:
tail bleeding = settings: rat, in vivo
saphenous vein bleeding = settings: rat, in vivo
ear vein bleeding = settings: pig, in vivo
[1] = in vivo

Substance	Tail bleeding (tail bleeding) [min]	tail bleeding time (tail bleeding)	RT50 for bleeding (tail bleeding; iv) [U/kg]	Sephaneous vein bleeding (saphenous vein bleeding) [min]	bleeding time (ear vein bleeding) [min]	plasma level [1]
unfractionated heparin [UFH, reference compound]	27	maximal bleeding	235	6.472	45	~ 0.6 µM
DAPT [reference compound]					6.4 ± 3.7	
